The text below walks through data of patent publication US10941153B2, “Substituted phenethylamine derivatives” (REGENTS OF THE UNIVERSITY OF MINNESOTA, priority 2018, dated 2021).

Amino acid sequences for entries named in this document (tags omitted). Residues count along the entry.
UniProt P08908, whole entry: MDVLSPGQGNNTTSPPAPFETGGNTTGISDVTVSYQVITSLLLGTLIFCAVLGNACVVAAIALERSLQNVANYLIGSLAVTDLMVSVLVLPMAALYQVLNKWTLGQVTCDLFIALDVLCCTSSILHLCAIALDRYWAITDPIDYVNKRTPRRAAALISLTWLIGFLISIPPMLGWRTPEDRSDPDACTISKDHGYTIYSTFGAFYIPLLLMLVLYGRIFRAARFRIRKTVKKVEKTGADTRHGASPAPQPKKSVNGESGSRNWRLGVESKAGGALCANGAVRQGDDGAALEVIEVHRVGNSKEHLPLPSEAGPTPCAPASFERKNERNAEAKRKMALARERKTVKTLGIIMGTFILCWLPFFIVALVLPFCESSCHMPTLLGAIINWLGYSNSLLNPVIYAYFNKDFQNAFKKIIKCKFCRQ
UniProt P41595, whole entry: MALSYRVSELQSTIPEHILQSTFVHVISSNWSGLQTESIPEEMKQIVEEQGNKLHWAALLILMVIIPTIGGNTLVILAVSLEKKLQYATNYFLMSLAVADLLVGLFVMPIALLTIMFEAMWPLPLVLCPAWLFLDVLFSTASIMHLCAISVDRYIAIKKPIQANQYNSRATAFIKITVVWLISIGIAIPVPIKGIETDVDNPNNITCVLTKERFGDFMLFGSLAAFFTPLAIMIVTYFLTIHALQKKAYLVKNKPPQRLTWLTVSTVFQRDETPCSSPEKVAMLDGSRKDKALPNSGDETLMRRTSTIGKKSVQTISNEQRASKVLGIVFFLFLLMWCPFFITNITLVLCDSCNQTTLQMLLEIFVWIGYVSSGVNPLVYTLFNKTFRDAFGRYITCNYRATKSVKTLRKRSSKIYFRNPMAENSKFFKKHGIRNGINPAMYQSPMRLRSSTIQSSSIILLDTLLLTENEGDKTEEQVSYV
UniProt Q99720, whole entry: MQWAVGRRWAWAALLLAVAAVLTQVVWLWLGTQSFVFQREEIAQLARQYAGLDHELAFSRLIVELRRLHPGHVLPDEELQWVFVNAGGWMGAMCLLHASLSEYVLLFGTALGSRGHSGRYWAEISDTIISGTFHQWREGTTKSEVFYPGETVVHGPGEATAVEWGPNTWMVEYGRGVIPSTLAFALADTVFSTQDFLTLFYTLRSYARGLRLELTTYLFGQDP
UniProt P34969, 1-445 isoform 2: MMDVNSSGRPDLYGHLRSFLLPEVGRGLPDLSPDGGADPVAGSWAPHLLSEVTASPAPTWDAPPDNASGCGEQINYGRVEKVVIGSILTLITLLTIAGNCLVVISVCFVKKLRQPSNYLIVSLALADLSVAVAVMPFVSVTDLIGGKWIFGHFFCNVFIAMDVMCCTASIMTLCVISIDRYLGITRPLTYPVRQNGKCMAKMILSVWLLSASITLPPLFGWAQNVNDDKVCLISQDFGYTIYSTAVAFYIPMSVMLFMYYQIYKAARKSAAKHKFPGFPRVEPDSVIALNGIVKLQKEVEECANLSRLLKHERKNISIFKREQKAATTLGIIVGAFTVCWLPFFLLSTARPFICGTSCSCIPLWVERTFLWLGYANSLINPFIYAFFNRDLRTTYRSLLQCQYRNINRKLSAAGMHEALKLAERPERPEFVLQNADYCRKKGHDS

Test [1] relates to σ1 receptor. The experiment in a line: PDSP binding affinity, sigma-1. Details: species or system human.
The next test addresses 5-HT1A receptor (Homo sapiens, UniProt P08908). The test can be described thus: PDSP GPCR binding affinity, 5-HT1A.
A further test concerns the target 5-HT2B receptor (Homo sapiens, UniProt P41595). The experiment in a line: PDSP GPCR binding affinity, 5-HT2B. From the text: In particular, the Ki (nM) value is provided. […] FIGS. 14-15 are graphical views of Log P vs. Ki, 5-HT2B receptor and Log P vs. Ki, sigma-1 receptor, respectively, summarizing the data presented in Table 6, according to one or more embodiments of the present disclosure. Assay data for compound 53545 against 5-HT7A receptor is presented in FIG. 18 and Tables 8-9 provided below:
Assay data for compound 53529 against 5-HT2B receptor is presented in FIG. 22 and Tables 12-13 provided below: […]

Test [2] deals with σ1 receptor (UniProt Q99720). The experiment in a line: PDSP binding affinity, sigma-1. Details: species or system human.
Another test deals with σ2 receptor. The experiment in a line: PDSP binding affinity, sigma-2. More on the design: species or system human. The conditions noted are these: read-out: Ki, Sigma-2.
The target in a further test is 5-HT7 receptor (Homo sapiens, UniProt P34969). The experiment in a line: PDSP GPCR binding affinity, 5-HT7.
The subject of a further test is 661W cells. The test can be described thus: Neuroprotection in 661W retinal cells under oxidative stress.
For test [3], the system named is human GPCR (serotonin, adrenergic, dopamine, histamine, muscarinic, opioid, sigma and others). The experiment in a line: PDSP broad GPCR screen. Conditions: wider array of GCPR, Table 5.
The mark [4] stands for this setting: read-out: Ki, Target 5-HT1A (second line so labelled in Tables 9, 11, 13), second of three table lines printed as 5-HT1A.
[5] abbreviates: read-out: Ki, Target 5-HT1A (third line so labelled in Tables 9, 11, 13), third of three table lines printed as 5-HT1A.

The structures appear in SMILES notation. Read-outs that look alike come from different tables or passages of the source.

On to `CC[C@H]1c2cc(-c3ccccc3)ccc2OC[C@@]1(C)N` (relative stereo), for which the “selectivity for σ1 relative to the 5-HT2B receptor” value in the test with σ1 receptor [1] (5-HT2B was the second most sensitive receptor assayed) stood at 10 fold.

As to `CC[C@H]1c2ccc3ccccc3c2OC[C@@]1(C)N` (relative stereo), the inhibition constant Ki (in general, the dissociation constant of the complex between target and ligand, obtained from inhibition or displacement) at 5-HT1A receptor (read-out: Ki, 5-HT1A) amounted to 2200 nM; at 5-HT1A receptor (setting [4]), 3.4 nM; at 5-HT1A receptor (setting [5]) it was 960 nM; on 5-HT2B receptor (read-out: Ki (Table 12), 5-HT2B receptor, competition binding curve, SB 206553 as reference), 3.41 nM; at σ1 receptor [2] (read-out: Ki, Sigma-1) it was 3900 nM; in the test on σ2 receptor it was 510 nM. Further, the “selectivity for 5-HT2B relative to the σ2 receptor” value at 5-HT2B receptor (σ2 was the second most sensitive GPCR assayed) is recorded as 150 fold.

As to `CC[C@H]1c2ccccc2N(c2ccccc2)C[C@@]1(C)N` (relative stereo), the “selectivity for 5-HT1A over 5-HT7” value on 5-HT1A receptor was determined as 15 fold. The inhibition constant Ki at 5-HT1A receptor (read-out: Ki, 5-HT1A) is 73 nM.

Consider `CN1CC[C@H]2c3ccccc3N(c3ccccc3)C[C@]21C` (relative stereo), for which the inhibitory constant (Ki) on 5-HT1A receptor (read-out: Ki, 5-HT1A) was 183 nM; on 5-HT1A receptor (setting [4]) it was 203 nM; on 5-HT1A receptor (setting [5]) it was 2.4 nM; at 5-HT7 receptor (read-out: Ki (Table 8), 5-HT7A receptor, competition binding curve, clozapine as reference), 2.39 nM; on σ1 receptor [2] (read-out: Ki, Sigma-1), 136 nM; in the test with σ2 receptor, 150 nM. On 5-HT7 receptor (compound 53545, among the five targets of Table 9), the “fold selective (Table 9)” value is on record as more than 50 fold selective.

As for `COc1cc(OC)c2c(c1)OC[C@@]1(C)NCC[C@@H]21` (relative stereo), in the test with σ1 receptor [1], the “selectivity for σ1 vs other GCPR (vs 5-HT2B)” value was more than 5 fold and the “σ1 vs σ2 selectivity” value was more than 200 fold. The “neuroprotective properties in 661W cells” value in the test on 661W cells is on record as “neuroprotective”. Also, in test [3], the “activity across the additional GCPR investigated” value is “minimal activity”.

As for `C[C@@]12COc3ccc(OCc4ccccc4)cc3[C@@H]1CCN2` (relative stereo), the Ki amounted to 448 nM on 5-HT1A receptor (setting [4]); 6.51 nM at σ1 receptor [2] (read-out: Ki (Table 10), sigma-1 receptor, competition binding curve, haloperidol as reference); 6.8 nM at σ1 receptor [2] (read-out: Ki, Sigma-1); 125 nM in the test on σ2 receptor.
